The target of test [1] is CqDOP2 (Culex quinquefasciatus, UniProt A0A0B5H0X6). The settings on record: human D1 IC50 divided by CqDOP2 IC50.
Test [2] concerns the target T1, AaDOP2 (Aedes aegypti, UniProt H6D5H2).
T1 sequence (H6D5H2 1-476): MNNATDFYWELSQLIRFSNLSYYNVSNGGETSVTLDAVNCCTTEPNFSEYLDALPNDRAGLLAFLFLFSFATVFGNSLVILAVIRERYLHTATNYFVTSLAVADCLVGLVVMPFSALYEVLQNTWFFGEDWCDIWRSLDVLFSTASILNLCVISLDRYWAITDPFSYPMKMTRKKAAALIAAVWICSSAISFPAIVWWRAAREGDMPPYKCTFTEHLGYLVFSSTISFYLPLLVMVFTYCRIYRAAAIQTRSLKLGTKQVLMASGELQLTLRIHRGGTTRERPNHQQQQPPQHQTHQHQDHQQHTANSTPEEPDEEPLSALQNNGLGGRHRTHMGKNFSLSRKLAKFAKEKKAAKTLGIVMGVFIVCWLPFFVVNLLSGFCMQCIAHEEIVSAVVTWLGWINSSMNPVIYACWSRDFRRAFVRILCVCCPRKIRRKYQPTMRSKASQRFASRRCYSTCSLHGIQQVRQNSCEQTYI
The following applies: human D1 IC50 divided by AaDOP2 IC50.

Protein sequences, listed by entry. Tags and fused reporters are not part of them.
UniProt A0A0B5H0X6, entry or part of it: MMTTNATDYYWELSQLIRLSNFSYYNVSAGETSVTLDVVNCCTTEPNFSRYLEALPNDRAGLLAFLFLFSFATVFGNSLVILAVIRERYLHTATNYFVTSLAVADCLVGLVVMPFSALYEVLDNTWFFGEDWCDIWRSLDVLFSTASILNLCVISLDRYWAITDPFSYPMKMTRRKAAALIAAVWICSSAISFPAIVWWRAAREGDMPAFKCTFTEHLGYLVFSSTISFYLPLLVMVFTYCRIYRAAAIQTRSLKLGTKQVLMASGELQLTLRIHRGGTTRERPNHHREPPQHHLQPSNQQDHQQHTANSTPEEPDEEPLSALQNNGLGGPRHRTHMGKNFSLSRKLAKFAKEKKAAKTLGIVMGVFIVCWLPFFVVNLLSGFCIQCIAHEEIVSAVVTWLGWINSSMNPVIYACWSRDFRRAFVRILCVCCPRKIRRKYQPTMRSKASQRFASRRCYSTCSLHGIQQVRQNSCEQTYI
UniProt P21728, whole entry: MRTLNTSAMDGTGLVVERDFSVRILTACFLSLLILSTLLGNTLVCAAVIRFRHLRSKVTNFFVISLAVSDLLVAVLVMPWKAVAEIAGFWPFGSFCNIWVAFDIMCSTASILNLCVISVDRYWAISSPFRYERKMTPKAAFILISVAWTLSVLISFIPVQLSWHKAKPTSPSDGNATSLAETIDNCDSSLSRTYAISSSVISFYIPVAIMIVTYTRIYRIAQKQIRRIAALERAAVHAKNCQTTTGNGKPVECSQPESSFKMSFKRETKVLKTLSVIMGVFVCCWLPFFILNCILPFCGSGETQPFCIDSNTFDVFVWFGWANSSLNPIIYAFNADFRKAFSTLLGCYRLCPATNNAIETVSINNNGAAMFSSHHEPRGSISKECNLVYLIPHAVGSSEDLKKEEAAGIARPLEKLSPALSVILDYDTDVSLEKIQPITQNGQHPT

For test [3], the target named is T2, Human D1 (Homo sapiens, UniProt P21728).
T2 construct: expressed in transfected cells
The test is described as follows: Inhibition of dopamine-stimulated cAMP response (HTRF) in HEK293 cells expressing human D1. Format: cell-based.

Where a name gives a salt, the structure may show the parent alone.

Turning to `CN(C)CCC=C1c2ccccc2CCc2ccccc21` [Amitriptyline, amitriptyline hydrochloride], the “Fold selectivity to Human D1, CqDOP2” value in test [1] amounted to 209. Further, the “Fold selectivity to Human D1, AaDOP2” value in test [2] is 108.
In the same order, the values of `CN1CC2c3ccccc3Oc3ccc(Cl)cc3C2C1` (stereo not drawn) [Asenapine, asenapine maleate] are 126 and 144.
One may read the IC50 as the concentration that inhibits the measured activity by half. A low value points to inhibition by little substance. Consider `OCCN1CCN(CC/C=C2/c3ccccc3Sc3ccc(C(F)(F)F)cc32)CC1` [Cis-(Z)-flupenthixol, cis-(Z)-flupenthixol dihydrochloride], for which, in test [3], the midpoint of inhibition, the IC50, lay at 9.4 ± 3 nM. For the same molecule, the “Fold selectivity to Human D1, CqDOP2” value in test [1] is 5. For the same molecule, in test [2], the “Fold selectivity to Human D1, AaDOP2” value is 5.
Turning to `CN(C)CCC=C1c2ccccc2COc2ccccc21` [Doxepin, doxepin hydrochloride], the “Fold selectivity to Human D1, CqDOP2” value in test [1] came out at 227. The “Fold selectivity to Human D1, AaDOP2” value in test [2] was determined as 111.

Source of the values: publication PMC4368516 (PLoS Neglected Tropical Diseases, 2015).
